Test: Dynamic Vapor Sorption (DVS) at 25° C.
Conditions: 70% RH, method 50-90-0-50% RH, dm/dt = 0.01%

DVS Desorp (%): 0.16%
DVS Sorption (%): 0.14%
Substance: (S)-mepazine succinate salt
